# Patent CN111196852A (SICHUAN KELUN BOTAI BIOMEDICAL CO LTD; ANYUAN MEDICINE TECH …, dated 2020)
# By UniProt entry, the sequences of proteins in these tests, tags left out. Residues count along the entry.
# UniProt Q495A1, 22-244: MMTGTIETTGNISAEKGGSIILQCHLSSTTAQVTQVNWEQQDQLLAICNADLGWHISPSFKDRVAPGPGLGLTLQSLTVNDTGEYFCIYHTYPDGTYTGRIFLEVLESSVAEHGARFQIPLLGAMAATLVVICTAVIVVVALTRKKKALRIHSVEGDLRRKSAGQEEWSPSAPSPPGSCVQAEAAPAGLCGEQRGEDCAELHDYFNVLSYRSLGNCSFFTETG
# UniProt Q495A1, 22-141 limits assumed: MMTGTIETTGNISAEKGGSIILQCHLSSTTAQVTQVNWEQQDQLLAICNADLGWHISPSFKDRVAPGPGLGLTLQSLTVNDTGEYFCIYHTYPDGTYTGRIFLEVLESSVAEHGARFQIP
# Experiments:
# [1] = target: T1, 全长TIGIT (Gene ID:201633), 表达于细胞表面 (UniProt Q495A1 22-244); experiment: cell-based or functional assay
# [2] = target: T1, 全长TIGIT (Gene ID:201633), 表达于细胞表面; experiment: flow cytometry competition on Jurkat-TIGIT cells; competitor FITC-CD155 (600 nM mixed 1:1 with the antibody)
# [3] = target: T1, 全长TIGIT (Gene ID:201633), 表达于细胞表面; experiment: cell-based or functional assay; remark: listed apart in the source
# [4] = target: T1, 全长TIGIT (Gene ID:201633), 表达于细胞表面; experiment: flow cytometry, NHS-Fluro labelled antibody on Jurkat-TIGIT cells
# 人TIGIT/mFc = target: T2, 人TIGIT/mFc (human, UniProt Q495A1 22-141, limits assumed); experiment: ELISA, human TIGIT/mFc coated at 1 μg/ml, HRP anti-human IgG(H+L)
# T2 construct: Made in house (安源医药科技(上海)有限公司); not shown: mouse Fc (mFc)
"CDC活性 EC50 (Jurkat-TIGIT细胞, 20%豚鼠血清, OD450) [1] [nM]",IC50 [2] [nM],"ADCC活性 EC50 (Jurkat-NFAT/luciferase-CD16a效应细胞 + CHO-S-TIGIT靶细胞, 荧光素酶) [3] [nM]",EC50 [4] [nM],EC50 (人TIGIT/mFc) [nM],Binder
0.84,14.6,0.383,0.682,–,"人源化抗体AB12V8 (antibody, V domains shown) VH: QVQLVQSGAEVKKPGASVKVSCKASGYAFTNYLIEWIRQAPGQGLEWMGVINPGSGGTNYAQKLQGRVTLTADKSTNTAYMELRSLRSDDTAVYFCAGSYGSSYTFDYWGQGTLVTVSS VL: DIQMTQSPSSLSASVGDRVTITCRASQHVSTAVVWYQQKPGKAPKLLIYSPSYRYTGVPSRFSGSGSGTDFTLTISSLQPEDFATYYCHQHYSTPWTFGQGTKLEIK"
0.82,29,0.39,1.12,–,"人源化抗体AB12V9 (antibody, V domains shown) VH: QVQLVQSGAEVKKPGSSVKVSCKASGFNIKDTYINWVRQAPGQGLEWMGRIDPASGDTKYAQKFQGRVTITTDTSTNTAYMELSSLRSEDTAVYYCPKSGDYGWYFDVWGQGTLVTVSS VL: EIVLTQSPDFQSVTPKEKVTITCRASQSISSNLHWYQQKPDQSPKLLIKYASQSISGVPSRFSGSGSGTDFTLTISSLEAEDAATYFCQQSNSWLTFGQGTKLEIK"

# The next lines start with the binder.
Binder,"CDC活性 EC50 (Jurkat-TIGIT细胞, 20%豚鼠血清, OD450) [1] [nM]",IC50 [2] [nM],"ADCC活性 EC50 (Jurkat-NFAT/luciferase-CD16a效应细胞 + CHO-S-TIGIT靶细胞, 荧光素酶) [3] [nM]",EC50 [4] [nM],EC50 (人TIGIT/mFc) [nM]
"人源化抗体AB12V5 (antibody, V domains shown) VH: EVQLVQSGAEVVKPGATVKLSCKASGFNIKDTYINWVKQRPGKGLEWIGRIDPANGDTKYAEKFQGRATITTDTSSNTAYLQLSSLRSEDTAVYYCPKSGDYGWYFDVWGQGTMVTVSS VL: DIVLTQSPDFQSVTPKEKVTLSCRASQSISNNLHWYQQKPDQSPRLLIKYASQSISGIPSRFSGSGSGTYFTLSINSVEAEDFGMYFCQQSNSWLTFGQGTKLEIK",–,–,–,–,0.0474
"人源化抗体AB12V7 (antibody, V domains shown) VH: EVQLVQSGAEVKKPGATVKISCKASGFNIKDTYINWVQQAPGKGLEWIGRIDPANGDTKYAEKFQGRVTITTDTSSNTAYMELSSLRSEDTAVYYCPKSGDYGWYFDVWGQGTMVTVSS VL: DIVLTQSPDFQSVTPKEKVTITCRASQSISNNLHWYQQKPDQSPRLLIKYASQSISGVPSRFSGSGSGTYFTLTINSLEAEDAATYFCQQSNSWLTFGQGTKLEIK",–,–,–,–,0.0539
